Laboratory results from publication PMC4871480, “A Miniaturized Screen of a Schistosoma mansoni Serotonergic G Protein-Coupled Receptor Identifies Novel Classes of Parasite-Selective Inhibitors” (PLoS Pathogens, 2016).

Protein sequences, listed by entry. Tags and fused reporters are not part of them. Residues count along the entry.
UniProt P34969, 1-445 isoform P34969-2: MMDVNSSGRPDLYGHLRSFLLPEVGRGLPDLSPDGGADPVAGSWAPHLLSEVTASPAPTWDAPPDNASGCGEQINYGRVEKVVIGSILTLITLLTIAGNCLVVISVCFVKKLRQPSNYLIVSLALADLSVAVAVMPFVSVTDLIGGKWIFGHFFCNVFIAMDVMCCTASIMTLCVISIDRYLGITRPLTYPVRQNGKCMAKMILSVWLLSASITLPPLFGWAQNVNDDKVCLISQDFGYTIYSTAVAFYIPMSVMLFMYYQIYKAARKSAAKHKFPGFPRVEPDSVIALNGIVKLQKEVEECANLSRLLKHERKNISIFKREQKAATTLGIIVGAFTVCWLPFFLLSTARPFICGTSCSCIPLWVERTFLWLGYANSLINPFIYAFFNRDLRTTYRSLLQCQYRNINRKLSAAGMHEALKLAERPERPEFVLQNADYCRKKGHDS

Target: T1, Hs.5HT7R (Homo sapiens, UniProt P34969)
T1 construct: host or cells: HEK293 (ATCC CRL-1573.3), transient transfection, pCS2(-) vector
Experiment: GloSensor cAMP assay in HEK293 cells expressing Hs.5HT7R
Format: cell-based
Details: Fig 4
Description: HEK293 cells (ATCC CRL-1573.3) were cultured in DMEM supplemented with 10% fetal bovine serum (FBS), penicillin (100 units/ml), streptomycin (100 μg/ml), and L-glutamine (290 μg/ml). Cells were transiently transfected (ViaFect, Promega) as per the manufacturer’s protocol at a density of 2x10^6 cells per T-25 cell-culture flask. Cells were transfected with plasmids encoding GloSensor (Promega) and either Sm.5HTR (Smp_126730, GenBank accession number KF444051.1) or Sm.5HTRL (KX150867), bothGPCRs being codon optimized for mammalian expression, or Hs.5HT7a (GenBank accession number NM_000872.4, R&D Systems) subcloned into pCS2(-). Cell culture reagents were from Invitrogen. Epitope tagged constructs were used to verify expression, and untagged constructs used for all luminescence assays.
For assays performed on adherent cells, HEK-293 cells were transferred one day post transfection to 96 well, solid white plates (Corning, cat # 3917) coated with 0.01% poly-L-lysine (Sigma Aldrich) at a density of 5 x 10^4 cells / well in DMEM supplemented with 1% dialyzed FBS (Gibco). […] Plates were allowed to equilibrate at room temperature for two hours prior to performing luminescence assays (GloMax-Multi Detection System plate reader, Promega). […]

CC1CCN(CC[C@H]2CCCN2S(=O)(=O)c2cccc(O)c2)CC1 [SB269970]
inhibition of Hs.5HT7R: potent inhibitors
